# Experiments:
# Sequences of proteins named here, by UniProt entry; tags and fusion partners are left off. A change or cut given only in a name is not applied to a line headed by its entry.
# UniProt Q9HC97: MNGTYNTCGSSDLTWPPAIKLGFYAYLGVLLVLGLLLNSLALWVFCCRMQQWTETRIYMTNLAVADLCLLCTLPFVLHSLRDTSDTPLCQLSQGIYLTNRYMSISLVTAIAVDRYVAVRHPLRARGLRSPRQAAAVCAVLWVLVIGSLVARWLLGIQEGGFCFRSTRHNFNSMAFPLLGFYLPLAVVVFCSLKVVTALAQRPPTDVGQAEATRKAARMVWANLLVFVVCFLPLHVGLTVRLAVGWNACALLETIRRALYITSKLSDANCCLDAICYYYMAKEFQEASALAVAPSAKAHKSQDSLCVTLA
# [1] = molecular target: T1, G-protein coupled receptor 35 (Homo sapiens, UniProt Q9HC97); details: u2os
# [2] = molecular target: T1, G-protein coupled receptor 35; details: ht-29
compound,measurement,setting,value
O=[N+]([O-])c1cc([N+](=O)[O-])c(Cl)c(Cl)c1O,EC50,[1],24.2 µM
same,EC50,[2],1.39 µM
Cc1cc([N+](=O)[O-])c(O)c([N+](=O)[O-])c1,EC50,[1],36.4 µM
same,EC50,[2],5.27 µM
O=[N+]([O-])c1ccc([N+](=O)[O-])c(O)c1,EC50,[2],52.6 µM
Cc1cc([N+](=O)[O-])cc([N+](=O)[O-])c1O,EC50,[1],81.1 µM
same,EC50,[2],6.91 µM
O=[N+]([O-])c1cc(Cl)c(O)c([N+](=O)[O-])c1,EC50,[1],41.7 µM
same,EC50,[2],5.45 µM
O=[N+]([O-])c1cc(C(=C(Cl)Cl)c2cc([N+](=O)[O-])c(O)c([N+](=O)[O-])c2)cc([N+](=O)[O-])c1O,EC50,[1],2.12 µM
same,EC50,[2],0.006 µM
CC(C)(c1cc([N+](=O)[O-])c(O)c([N+](=O)[O-])c1)c1cc([N+](=O)[O-])c(O)c([N+](=O)[O-])c1,EC50,[1],29.2 µM
same,EC50,[2],2.35 µM
O=[N+]([O-])c1cccc(O)c1[N+](=O)[O-],EC50,[2],58.5 µM
